Measured values from patent US8921306B2, “Nociceptin mimetics” (The University of Queensland, priority 2010, dated 2014).

Tests used:
circular dichroism = conditions: 10 mM phosphate; pH 7.4; 22 °C; 50-400 uM
[1] = Circular dichroism spectroscopy (helicity); type: physicochemical; conditions: for θ222/208 (buffer) / fH (buffer): 10 mM phosphate buffer (pH 7.4) at 22° C.; for fH (buffer): fH calculated based on θ at 222 nm; for fH (TFE*): buffer: TFE 50:50, 22° C.
Protocol: CD measurements were performed using a Jasco model J-710 spectropolarimeter which was routinely calibrated with (1S)-(+)-10-camphorsulfonic acid. A stock solution of 1-2 mg of peptide was dissolved in 1 mL of water. Separate 500 μL solutions of 50, 100, 200 and 400 μM were then prepared using an appropriate amount of stock solution and making up the different with 10 mM Phosphate Buffer (final pH 7.1). […] Jasco quartz cell over the wavelength range 260-185 nm at 100 nm/min. with a bandwidth of 1.0 nm, response time of 2 s, resolution step width of 1 nm and sensitivity of 20-50 Mdeg. Each spectrum represents the average of 5 scans. Spectra were analyzed using the spectral analysis software and smoothed using ‘adaptive smoothing’ function. Concentrations were determined using the PULCON method. [Wider, Dreier, 2006, J. Am. Chem. Soc. 128:2571-2576]
The incorporation of two lactam bridges induced appreciable helicity, monitored at 222 nm, and was calculated to range between 32-77% helicity. By comparison, the unconstrained nociceptin peptides (SEQ ID NOs:1-5, 9 and 10) had less than 6% α-helicity in water. […] This is due to the fact that residues 1-6 (or 1-5 in 6) are not constrained and would not be expected to be in a helical conformation as they feature amino acids that have little or no propensity to adopt helices in proteins. To determine whether the exocyclic regions were the sole cause of low helicity, SEQ ID NO:15 without the N-terminal message was investigated further. This 12-residue peptide features eight residues (K, R, Q) known to favor α-helicity in proteins, and was 60% helical in phosphate buffer by CD spectral analysis. The serine residue is conserved within the sequence of many of these peptides and is known to be a helix breaker.

ORL-1 receptor = target: T1, ORL-1 receptor (Mus musculus, UniProt P35377); assay: Agonist functional activity assessed by ERK phosphorylation (pERK) in Neuro-2a cells; type: cell-based
T1 construct: Neuro-2a cells were a gift from Professor John Mattick's laboratory; endogenous in cells; host or cells: Neuro-2a cells
Protocol: Neuro-2a cells were a gift from Professor John Mattick's laboratory (Institute of Molecular Bioscience, University of Queensland) and were cultured in Gibco® DMEM (Invitrogen, CA, USA) supplemented with 10% FBS (Invitrogen, CA, USA), GIBCO® Pen/Strep (50 units/mL penicillin and 50 μg/mL streptomycin, Invitrogen, CA, USA) and GIBCO® NEAA (1× concentration, Invitrogen, CA, USA). Cells were split 1:10 every 3 days.
All cells were incubated at 37° C. and 5% CO2. When treated with pertussis toxin (PTX, catalogue number P7208, Sigma-Aldrich, NY, USA), cells were incubated with 500 ng/mL for 15 hours before use. Cells treated with MEK inhibitor PD98059 (catalogue number PHZ1164, Invitrogen, CA, USA) were preincubated with 50 μM for 1 hour before use.
Cells were placed in 12-well plates (NUNC™, NY, USA) and allowed to adhere for 24-36 h. […] For agonist assays, cells were challenged with compounds for 35 minutes and incubated at 37° C. (5% CO2).
Membranes were washed 3×10 minutes with TBE (with 0.1% Tween-20) and incubated with a primary antibody. For pERK, rabbit polyclonal ERK1+2 [pTpY185/187] […] Instead, rabbit IgG Phospho-ERK1 (T202/Y204)/ERK2 (T185/Y187) (1:2000, catalogue number AF1018, R&D Systems, MN, USA) was used. […] After multiple washes, the membranes were developed using ECL Detection Solution (Amersham Biosciences) and visualized using photographic film. Radiography was quantified using ImageJ (ImageI 1.36b, NIH).
pERK and total ERK concentrations were determined using a modified protocol for the AlphaScreen Surefire Assay. The modified protocol used half the volume of reagents recommended in the manufacturers' protocol with 2 μL of cell extract in both pERK and total ERK assays. The ratio of pERK to total ERK was determined using equation 1 and normalized to control. For agonist responses, the controls used were PBS (0%) and 1 μM nociceptin1-17-OH (100%). For antagonist responses, the controls used were PBS (100%) and 100 nM nociceptin1-17-NH2 (100%).
Concentration responses were analyzed using non-linear regression (variable slope) (Prism5, GraphPad Software) and data is presented as either EC50 (for agonists) or IC50 (antagonists).
Helix constrained and unconstrained peptides were pre-screened using the pERK assay at a single concentration.

Compound	helicity (circular dichroism) [frac]	also measured
CC(=O)NCCCC[C@H](NC(=O)CNC(=O)[C@@H](NC(=O)[C@H](Cc1ccccc1)NC(=O)CNC(=O)CNC(=O)[C@@H](N)Cc1ccccc1)[C@@H](C)O)C(=O)N[C@@H](CCCNC(=N)N)C(=O)N[C@@H](CCCCN)C(=O)N[C@@H](CO)C(=O)N[C@@H](CC(N)=O)C(=O)N[C@@H](CCCNC(=N)N)C(=O)N[C@@H](CCCCN)C(=O)N[C@@H](CCCCNC(C)=O)C(=O)N[C@@H](C)C(=O)N[C@@H](CC(N)=O)C(=O)N[C@@H](CCC(N)=O)C(=O)N[C@@H](CC(N)=O)C(N)=O	0.03	
C[C@@H](O)[C@H](NC(=O)[C@H](Cc1ccccc1)NC(=O)CNC(=O)CNC(=O)CNCc1ccccc1)C(=O)NCC(=O)N[C@H]1CCCCNC(=O)C[C@@H](C(=O)N[C@@H](CCCNC(=N)N)C(=O)N[C@@H](CCCCN)C(=O)N[C@H]2CCCCNC(=O)C[C@@H](C(N)=O)NC(=O)[C@H](CCC(N)=O)NC(=O)[C@H](CC(N)=O)NC(=O)[C@H](CCCCN)NC2=O)NC(=O)[C@H](CO)NC(=O)[C@H](CCCCN)NC(=O)[C@H](CCCNC(=N)N)NC1=O	0.41	
C[C@H](NC(=O)[C@H](CCC(N)=O)NC(=O)[C@H](CC(N)=O)NC(=O)[C@H](C)NC(=O)[C@H](C)NC(=O)[C@H](CCCCN)NC(=O)[C@H](CCCNC(=N)N)NC(=O)[C@H](C)NC(=O)[C@H](CO)NC(=O)[C@H](CCCCN)NC(=O)[C@H](CCCNC(=N)N)NC(=O)[C@H](C)NC(=O)CNC(=O)[C@@H](NC(=O)[C@H](Cc1ccccc1)NC(=O)CNC(=O)CNC(=O)[C@@H](N)Cc1ccccc1)[C@@H](C)O)C(N)=O	0.02	
C[C@H](NC(=O)CNC(=O)[C@@H](NC(=O)[C@H](Cc1ccccc1)NC(=O)CNC(=O)CNC(=O)CNCc1ccccc1)[C@@H](C)O)C(=O)N[C@@H](CCCNC(=N)N)C(=O)N[C@@H](CCCCN)C(=O)N[C@@H](CO)C(=O)N[C@@H](C)C(=O)N[C@@H](CCCNC(=N)N)C(=O)N[C@@H](CCCCN)C(N)=O [compound 11]	0.03	θ222/208 (buffer) [1]: −0.10; fH (buffer) [1]: 0.03; fH (TFE*) [1]: 0.10
CC(C)C[C@H](NC(=O)[C@H](CCCCN)NC(=O)[C@H](CCCNC(=N)N)NC(=O)[C@H](C)NC(=O)[C@H](CO)NC(=O)[C@H](CCCCN)NC(=O)[C@H](CCCNC(=N)N)NC(=O)[C@H](C)NC(=O)CNC(=O)[C@@H](NC(=O)[C@H](Cc1ccc(F)cc1)NC(=O)CNC(=O)CNC(=O)CNCc1ccccc1)[C@@H](C)O)C(=O)N[C@@H](CCCCN)C(=O)N[C@@H](CC(N)=O)C(=O)N[C@@H](CCC(N)=O)C(N)=O	0.03	
C[C@@H](O)[C@H](NC(=O)[C@H](Cc1ccc(F)cc1)NC(=O)CNC(=O)CNC(=O)[C@@H](N)Cc1ccccc1)C(=O)NCC(=O)N[C@H]1CCCCNC(=O)C[C@@H](C(=O)N[C@@H](CCCNC(=N)N)C(=O)N[C@@H](CCCCN)C(=O)N[C@H]2CCCCNC(=O)C[C@@H](C(N)=O)NC(=O)[C@H](CCC(N)=O)NC(=O)[C@H](CC(N)=O)NC(=O)[C@H](CCCCN)NC2=O)NC(=O)[C@H](CO)NC(=O)[C@H](CCCCN)NC(=O)[C@H](CCCNC(=N)N)NC1=O	0.45	
CC(C)C[C@H](NC(=O)[C@H](CCCCN)NC(=O)[C@H](CCCNC(=N)N)NC(=O)[C@H](C)NC(=O)[C@H](CO)NC(=O)[C@H](CCCCN)NC(=O)[C@H](CCCNC(=N)N)NC(=O)[C@H](C)NC(=O)CNC(=O)[C@@H](NC(=O)[C@H](Cc1ccc(F)cc1)NC(=O)CNC(=O)CNC(=O)[C@@H](N)Cc1ccccc1)[C@@H](C)O)C(=O)N[C@@H](CCCCN)C(=O)N[C@@H](CC(N)=O)C(=O)N[C@@H](CCC(N)=O)C(N)=O	0.02	
C[C@@H]1NC(=O)[C@@H](NC(=O)[C@H](CCCCN)NC(=O)[C@H](CCCNC(=N)N)NC(=O)[C@@H]2CC(=O)NCCCC[C@H](NC(=O)CNC(=O)[C@@H](NC(=O)[C@H](Cc3ccccc3)NC(=O)CNC(=O)CNC(=O)[C@@H](N)Cc3ccccc3)[C@@H](C)O)C(=O)N[C@@H](CCCNC(=N)N)C(=O)N[C@@H](CCCCN)C(=O)N[C@@H](CO)C(=O)N2)CCCCNC(=O)C[C@@H](C(N)=O)NC(=O)[C@H](CCC(N)=O)NC(=O)[C@H](CC(N)=O)NC1=O	0.32	
CC(C)C[C@H](NC(=O)[C@H](CCCCN)NC(=O)[C@H](CCCNC(=N)N)NC(=O)[C@H](C)NC(=O)[C@H](CO)NC(=O)[C@H](CCCCN)NC(=O)[C@H](CCCNC(=N)N)NC(=O)[C@H](C)NC(=O)CNC(=O)[C@@H](NC(=O)[C@H](Cc1ccccc1)NC(=O)CNC(=O)CNC(=O)[C@@H](N)Cc1ccccc1)[C@@H](C)O)C(=O)N[C@@H](C)C(=O)N[C@@H](CC(N)=O)C(=O)N[C@@H](CCC(N)=O)C(N)=O	0.02	
CC(=O)N[C@H]1CCCCNC(=O)C[C@@H](C(=O)N[C@@H](CCCNC(=N)N)C(=O)N[C@@H](CCCCN)C(=O)N[C@H]2CCCCNC(=O)C[C@@H](C(N)=O)NC(=O)[C@H](CCC(N)=O)NC(=O)[C@H](CC(N)=O)NC(=O)[C@H](CCCCN)NC2=O)NC(=O)[C@H](CO)NC(=O)[C@H](CCCCN)NC(=O)[C@H](CCCNC(=N)N)NC1=O	0.6	
C[C@H](NC(=O)[C@H](CCC(N)=O)NC(=O)[C@H](CC(N)=O)NC(=O)[C@H](C)NC(=O)[C@H](C)NC(=O)[C@H](CCCCN)NC(=O)[C@H](CCCNC(=N)N)NC(=O)[C@H](C)NC(=O)[C@H](CO)NC(=O)[C@H](CCCCN)NC(=O)[C@H](CCCNC(=N)N)NC(=O)[C@H](C)NC(=O)CNC(=O)[C@@H](NC(=O)[C@H](Cc1ccccc1)NC(=O)CNC(=O)CNC(=O)[C@@H](N)Cc1ccccc1)[C@@H](C)O)C(N)=O [compound 5]		Emax (ORL-1 receptor; N2a, agonist pERK, controls PBS (0%) and 1 μM nociceptin1-17-OH (100%)): 93 ± 7%; -log EC50 ± SEM (ORL-1 receptor; agonist pERK activity, Neuro-2a cells, 35 minutes): 8.42 ± 0.15; θ222/208 (buffer) [1]: −0.11; fH (buffer) [1]: 0.02; fH (TFE*) [1]: 0.21
CC(C)C[C@H](NC(=O)[C@H](CCCCN)NC(=O)[C@H](CCCNC(=N)N)NC(=O)[C@H](C)NC(=O)[C@H](CO)NC(=O)[C@H](CCCCN)NC(=O)[C@H](CCCNC(=N)N)NC(=O)[C@H](C)NC(=O)CNC(=O)[C@@H](NC(=O)[C@H](Cc1ccccc1)NC(=O)CNC(=O)CNC(=O)CNCc1ccccc1)[C@@H](C)O)C(=O)N[C@@H](CCCCN)C(=O)N[C@@H](CC(N)=O)C(=O)N[C@@H](CCC(N)=O)C(N)=O	0.04	
C[C@@H](O)[C@H](N)C(=O)NCC(=O)N[C@H]1CCCCNC(=O)C[C@@H](C(=O)N[C@@H](CCCNC(=N)N)C(=O)N[C@@H](CCCCN)C(=O)N[C@H]2CCCCNC(=O)C[C@@H](C(N)=O)NC(=O)[C@H](CCC(N)=O)NC(=O)[C@H](CC(N)=O)NC(=O)[C@H](CCCCN)NC2=O)NC(=O)[C@H](CO)NC(=O)[C@H](CCCCN)NC(=O)[C@H](CCCNC(=N)N)NC1=O	0.34	
CC(C)C[C@@H]1NC(=O)[C@H](CCCCN)NC(=O)[C@H](CCCNC(=N)N)NC(=O)[C@@H](NC(=O)[C@@H]2CC(=O)NCCCC[C@H](NC(=O)[C@@H](NC(=O)[C@H](Cc3ccccc3)NC(=O)CNC(=O)CNC(=O)[C@@H](N)Cc3ccccc3)[C@@H](C)O)C(=O)N[C@@H](C)C(=O)N[C@@H](CCCNC(=N)N)C(=O)N[C@@H](CCCCN)C(=O)N2)CCCCNC(=O)C[C@@H](C(N)=O)NC1=O	0.54	
